Data from patent US10829480B2, “3-((hetero-)aryl)-alkyl-8-amino-2-oxo-l,3-diaza-spiro-[4.5]-decane derivatives” (dated 2020).

Chains of the proteins cited; added tags and fusions are not shown. Lines headed by an entry give the natural chain unless they say otherwise; changes in a name come on top.
UniProt P35372, whole entry, looked up: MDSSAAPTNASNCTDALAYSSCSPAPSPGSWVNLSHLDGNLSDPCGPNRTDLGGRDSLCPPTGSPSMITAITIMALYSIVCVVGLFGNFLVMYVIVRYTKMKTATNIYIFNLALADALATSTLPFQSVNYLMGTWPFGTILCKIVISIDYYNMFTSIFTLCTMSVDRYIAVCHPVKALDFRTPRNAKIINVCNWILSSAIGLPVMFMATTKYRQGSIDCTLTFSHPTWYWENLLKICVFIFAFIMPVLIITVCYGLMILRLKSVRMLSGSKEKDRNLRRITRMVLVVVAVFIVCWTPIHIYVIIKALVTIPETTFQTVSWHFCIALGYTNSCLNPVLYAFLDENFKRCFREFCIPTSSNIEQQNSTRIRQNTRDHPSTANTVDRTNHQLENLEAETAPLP
UniProt P41146: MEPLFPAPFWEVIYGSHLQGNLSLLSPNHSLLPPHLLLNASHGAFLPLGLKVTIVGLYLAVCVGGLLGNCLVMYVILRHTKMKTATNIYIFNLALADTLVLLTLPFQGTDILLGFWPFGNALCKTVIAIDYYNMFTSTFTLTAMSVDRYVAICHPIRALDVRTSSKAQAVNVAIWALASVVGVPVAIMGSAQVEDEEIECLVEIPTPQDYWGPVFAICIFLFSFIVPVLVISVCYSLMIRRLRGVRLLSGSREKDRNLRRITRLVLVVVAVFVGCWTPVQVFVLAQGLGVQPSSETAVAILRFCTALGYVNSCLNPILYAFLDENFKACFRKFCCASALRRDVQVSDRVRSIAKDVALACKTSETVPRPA

What was measured:
hMOP receptor = hMOP receptor (Homo sapiens (Human), UniProt P35372); test: Human mu-opioid peptide (hMOP) receptor binding assay (SPA, [3H]naloxone)
hNOP receptor = hNOP receptor (Homo sapiens (Human), UniProt P41146)

## COCCC[C@]1(N(C)C)CC[C@@]2(CC1)CN(Cc1ccc(OC)cc1)C(=O)N2
hMOP receptor
  hMOP % inhibition @ 1 μM: 26% @ 1 μM
hNOP receptor
  hNOP % inhibition @ 1 μM: 4% @ 1 μM
